Molecular target: menin protein (Homo sapiens (Human), UniProt O00255)
Details: read-out: Menin Binding Affinity IC50; FP competitive binding; menin protein 4 nM, FAM-MM2 probe 2 nM

Amino acid sequences for entries named in this document (tags omitted).
UniProt O00255, whole entry: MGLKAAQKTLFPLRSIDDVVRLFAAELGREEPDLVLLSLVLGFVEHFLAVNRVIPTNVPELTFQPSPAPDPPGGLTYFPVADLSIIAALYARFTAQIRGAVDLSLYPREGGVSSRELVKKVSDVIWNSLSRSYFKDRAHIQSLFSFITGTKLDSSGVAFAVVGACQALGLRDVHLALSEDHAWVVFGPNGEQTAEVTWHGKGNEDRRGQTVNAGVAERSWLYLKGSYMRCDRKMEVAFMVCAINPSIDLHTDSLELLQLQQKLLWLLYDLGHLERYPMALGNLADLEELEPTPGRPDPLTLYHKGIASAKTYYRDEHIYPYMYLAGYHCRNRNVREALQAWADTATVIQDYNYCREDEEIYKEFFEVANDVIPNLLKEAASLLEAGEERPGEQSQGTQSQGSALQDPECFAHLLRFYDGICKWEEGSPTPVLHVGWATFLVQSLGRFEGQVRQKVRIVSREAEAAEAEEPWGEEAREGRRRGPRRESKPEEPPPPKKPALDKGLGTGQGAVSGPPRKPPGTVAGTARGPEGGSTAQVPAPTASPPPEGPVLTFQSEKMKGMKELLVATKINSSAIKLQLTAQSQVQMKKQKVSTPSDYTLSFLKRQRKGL

With `CCS(=O)(=O)c1ccc(N2CCC(C(=O)N3CCC(C4(C5CCCC5)NCCc5c(F)cccc54)CC3)CC2)cc1` (stereo not shown) the IC50 was 7.2 µM.

— patent US10899738B2 (THE REGENTS OF THE UNIVERSITY OF MICHIGAN, priority 2016, dated 2021)
